Assay results from PubChem BioAssay AID687 (PCMD, 2007).
The entries are a selection whose mix differs from that of the whole data set. Active and inactive are the calls of the source.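 Rule for the calls: active = inhibition above 40% in the primary screen; inactive = the rest.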

By UniProt entry, the sequences of proteins in these tests, tags left out. Residues count along the entry.
UniProt P03951, 19-387 limits assumed: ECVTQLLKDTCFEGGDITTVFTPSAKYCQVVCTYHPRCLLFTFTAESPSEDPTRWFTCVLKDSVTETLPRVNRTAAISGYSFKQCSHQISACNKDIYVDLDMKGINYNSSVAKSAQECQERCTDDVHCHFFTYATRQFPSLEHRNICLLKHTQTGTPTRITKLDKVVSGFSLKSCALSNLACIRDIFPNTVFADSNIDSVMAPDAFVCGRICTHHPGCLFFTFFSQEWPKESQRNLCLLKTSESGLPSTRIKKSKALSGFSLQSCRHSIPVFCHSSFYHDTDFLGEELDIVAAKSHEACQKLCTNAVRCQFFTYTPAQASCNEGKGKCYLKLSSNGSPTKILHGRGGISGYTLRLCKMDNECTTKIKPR
UniProt P03951, 388-625 limits assumed: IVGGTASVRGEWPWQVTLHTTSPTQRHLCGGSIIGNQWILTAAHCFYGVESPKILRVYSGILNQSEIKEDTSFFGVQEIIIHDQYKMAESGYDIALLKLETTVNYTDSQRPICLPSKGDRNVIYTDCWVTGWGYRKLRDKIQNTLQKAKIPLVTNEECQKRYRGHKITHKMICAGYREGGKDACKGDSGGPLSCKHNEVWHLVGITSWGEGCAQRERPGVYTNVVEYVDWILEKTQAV

Target: Coagulation factor XI (Homo sapiens) (UniProt P03951)
Assay: human FXIa protease inhibitors, primary screen, biochemical, single compound per well (AID 687);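 note: 0% = enzyme without compound and 100% = blank wells lacking enzyme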
Details: purified human FXIa, fluorogenic AMC substrate cleavage; at 10 µM; active compounds read high

Row | Compound | inhibition
1 | CCc1ccc(OP(C)(=O)O)cc1 | inactive: 5.92%
2 | COc1ccccc1OP(C)(=O)Nc1ccc(C)cc1C (stereo not given) | inactive: 0.41%
3 | Cc1c(NP(C)(=O)Oc2ccc(C(C)C)cc2)c(=O)n(-c2ccccc2)n1C (stereo not given) | inactive: -7.25%
4 | CN(C)CCOC(=O)C(O)(c1ccccc1)C1CCCC1 (stereo not given) | inactive: -1.46%
5 | COc1ccc(OP(C)(=O)Nc2ccccn2)cc1 (stereo not given) | inactive: -2.13%
6 | CP(=O)(Nc1ccc(Cl)cc1)Oc1ccc(F)cc1 (stereo not given) | inactive: -13.4%
7 | CC(C)(C)c1ccc(OP(C)(=O)O)cc1 | inactive: 0.38%
8 | CP(=O)(OC12CC3CC(CC(C3)C1)C2)OC12CC3CC(CC(C3)C1)C2 | inactive: -3.83%
9 | CP(=O)(Nc1ccccc1)Oc1ccc(F)cc1 (stereo not given) | inactive: 5.13%
10 | CCN(CC)CCCOC(=O)C(O)(c1ccccc1)C1CCCCC1 (stereo not given) | inactive: -0.39%
11 | Cc1cc(C)cc(OP(C)(=O)Nc2ccccn2)c1 (stereo not given) | inactive: 6.24%
12 | Cc1cc(C)cc(OP(C)(=O)Nc2ccc(C)cc2C)c1 (stereo not given) | inactive: -1.61%
13 | COc1ccccc1OP(C)(=O)Nc1c(C)cccc1C (stereo not given) | inactive: 6.71%
14 | CP(=O)(Nc1ccccn1)Oc1ccc(Cl)cc1 (stereo not given) | inactive: -5.35%
15 | COc1ccc(OP(C)(=O)Nc2cccc(F)c2)cc1 (stereo not given) | inactive: -2.95%
